Test results taken from paper PMC6891394, “Determination of Picomolar Concentrations of Paraoxon in Human Urine by Fluorescence-Based Enzymatic Assay” (2019).

Amino acid sequences for entries named in this document (tags omitted). Residues count along the entry.
UniProt Q7SIG1, 1-310 limits assumed: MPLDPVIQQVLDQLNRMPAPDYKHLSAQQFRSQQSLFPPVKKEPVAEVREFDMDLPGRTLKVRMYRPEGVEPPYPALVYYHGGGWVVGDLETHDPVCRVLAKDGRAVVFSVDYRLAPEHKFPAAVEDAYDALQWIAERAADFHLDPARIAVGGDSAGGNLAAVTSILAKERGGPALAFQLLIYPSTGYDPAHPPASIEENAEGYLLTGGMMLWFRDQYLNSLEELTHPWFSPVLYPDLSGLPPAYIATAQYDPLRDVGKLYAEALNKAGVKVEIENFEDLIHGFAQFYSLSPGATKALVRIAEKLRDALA

Target: esterase-2 (EST2) (Alicyclobacillus acidocaldarius, UniProt Q7SIG1)
Test: fluorescence of released 4-MU (Ex […], Em […] nm); Lineweaver-Burk
Conditions: 25 mM HEPES pH 7.0, 1% Triton X-100, 30 °C

Q: For `CCCC(=O)Oc1ccc2c(C)cc(=O)oc2c1`, which Km is on record?
A: The Km was 222 µM.
